Measured values reported in PubChem BioAssay AID2013 (Sanford-Burnham Center for Chemical Genomics, 2009).
The entries are a selection whose mix differs from that of the whole data set. Entries with a potency or affinity are not part of this list. Some structures show a salt or complex split into parts, the way the source records it. The source made the active and inactive calls.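 Rule for the calls: active = spots per cell inhibited over 60%, with over 100 cells counted and total cytoplasm intensity under 500,000; inconclusive = wells with under 100 cells, flagged as likely toxic; inactive = the rest.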

Sequences of proteins named here, by UniProt entry; tags and fusion partners are left off.
UniProt Q9Y2T6, whole entry: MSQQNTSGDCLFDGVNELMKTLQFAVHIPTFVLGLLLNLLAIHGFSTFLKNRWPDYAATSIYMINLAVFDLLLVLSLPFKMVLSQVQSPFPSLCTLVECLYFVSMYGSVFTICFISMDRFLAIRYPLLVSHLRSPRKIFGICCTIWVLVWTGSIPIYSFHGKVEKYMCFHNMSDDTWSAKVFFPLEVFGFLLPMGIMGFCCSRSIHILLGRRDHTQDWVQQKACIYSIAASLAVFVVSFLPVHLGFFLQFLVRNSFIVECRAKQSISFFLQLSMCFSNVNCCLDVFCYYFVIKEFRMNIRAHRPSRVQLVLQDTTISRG

The compounds below were run against G-protein coupled receptor 55 (Homo sapiens) (UniProt Q9Y2T6) (assay: GPR55 antagonists blocking LPI-driven arrestin recruitment, primary screen, imaging, U2OS, beta-arrestin-GFP, LPI agonist (AID 2013;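 note: U2OS cells stably carrying GPR55 and arrestin-GFP stimulated by 5 µM LPI near EC80; imaged beta-arrestin-GFP aggregate spots per cell after agonist stimulation; plate controls were LPI-stimulated DMSO wells for no effect and DMSO wells without LPI for full effect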)). Settings: U2OS GPR55 beta-arrestin-GFP translocation imaging, LPI antagonism; at 10 µM; hits give high values.

| SMILES | inhibition |
| --- | --- |
| COc1ccccc1OP(C)(=O)Nc1ccc(C)c(C)c1 (stereo not given) | inactive: 11.2% |
| COc1ccc(OP(C)(=O)Nc2ccccc2Br)cc1 (stereo not given) | inactive: 0.9% |
| Cc1cc(C)cc(OP(C)(=O)Nc2cccc(C(F)(F)F)c2)c1 (stereo not given) | inactive: 12.6% |
| CP(=O)(OCCOc1ccccc1)OCCOc1ccccc1 | inactive: 1.6% |
| CP(=O)(Nc1ccc(Cl)cc1Cl)Oc1ccccc1 (stereo not given) | inactive: 4.9% |
| Cc1nc2ccc3ccccc3c2o1.O=[N+]([O-])c1cc([N+](=O)[O-])c(O)c([N+](=O)[O-])c1 | inactive: -8.3% |
| COc1ccc(OP(C)(=O)Nc2ccccn2)cc1 (stereo not given) | inactive: -9.8% |
| CN(C)CCOC(=O)C(O)(c1ccccc1)C1CCCC1 (stereo not given) | inactive: -10.6% |
| COc1ccccc1OP(C)(=O)Nc1ccc(Br)cc1 (stereo not given) | inactive: 3% |
| COc1ccccc1OP(C)(=O)Nc1ccc(C)cc1C (stereo not given) | inactive: -9.2% |
| CP(=O)(Nc1ccccn1)Oc1ccccc1 (stereo not given) | inactive: 5% |
| CCc1ccc(OP(C)(=O)O)cc1 | inactive: -4.4% |
| O=[N+]([O-])c1cc([N+](=O)[O-])c(Nc2ccccn2)c([N+](=O)[O-])c1 | inactive: -5.1% |
| Cc1c(NP(C)(=O)Oc2ccc(C(C)C)cc2)c(=O)n(-c2ccccc2)n1C (stereo not given) | inactive: -7.9% |
| O=C(OCCCN1CCCC1)C(O)(c1ccccc1)C1CCCCC1 (stereo not given) | inactive: -5.1% |
| COc1ccccc1OP(C)(=O)Nc1c(C)n(C)n(-c2ccccc2)c1=O (stereo not given) | inactive: 3.9% |
| CCc1ccc(OP(C)(=O)Nc2cccnc2)cc1 (stereo not given) | inactive: 4.2% |
| CP(=O)(Oc1ccccc1)N1CCOC1=O (stereo not given) | inactive: 7.5% |
| COc1ccc(OP(C)(=O)Nc2ccc(Br)cc2)cc1 (stereo not given) | inactive: 1.2% |
| CCN(CC)CC(O)COC(=O)C(O)(c1ccccc1)C1CCCCC1 (stereo not given) | inactive: -3.5% |
| CN(C)C(=O)c1c([N+](=O)[O-])cc([N+](=O)[O-])cc1[N+](=O)[O-] | inactive: 8.5% |
| CC(C)(C)c1ccc(OP(C)(=O)O)cc1 | inactive: -7.7% |

| SMILES | inhibition |
| --- | --- |
| COc1ccccc1OP(C)(=O)Nc1ccccc1Br (stereo not given) | inactive: 6% |
| CP(=O)(Nc1ccc(Cl)cc1)Oc1ccc(F)cc1 (stereo not given) | inactive: 26.7% |
| CCOC(=O)c1ccc(NP(C)(=O)Oc2ccc(Cl)cc2)cc1 (stereo not given) | inactive: 10.8% |
| CP(=O)(OC12CC3CC(CC(C3)C1)C2)OC12CC3CC(CC(C3)C1)C2 | inactive: -16.7% |
| CN(C)CCOC(=O)C(O)(c1ccccc1)C1CCCCC1 (stereo not given) | inactive: 20.7% |
| COc1ccc(NP(C)(=O)Oc2ccccc2OC)cc1 (stereo not given) | inactive: 1.1% |
| COc1ccc(OP(C)(=O)Nc2cccc(Br)c2)cc1 (stereo not given) | inactive: 33.4% |
| O=[N+]([O-])c1ccc(OP2(=O)COCCO2)cc1 (stereo not given) | inactive: 10.3% |
| Cc1cc(-c2cccc3ccccc23)c(C)cn1.O=[N+]([O-])c1cc([N+](=O)[O-])c(O)c([N+](=O)[O-])c1 | inactive: 0% |
| O=[N+]([O-])c1cc([N+](=O)[O-])c(NCC2CCS(=O)(=O)C2)c([N+](=O)[O-])c1 (stereo not given) | inactive: 9.5% |
| CCOP(C)(=S)SCC(=O)NC(C)(CC)C(=O)O (stereo not given) | inactive: 4.1% |
| CP(=O)(Nc1ccc(SC(F)(F)F)cc1)Oc1ccc(F)cc1 (stereo not given) | inactive: -6.7% |
| Cc1ccccc1NP(C)(=O)Nc1ccccc1C | inactive: 3.7% |
| CP(=O)(Nc1ccc2c(c1)OCCO2)Oc1ccccc1 (stereo not given) | inactive: 6.2% |
| CP(=O)(Nc1ccccc1F)Oc1ccccc1 (stereo not given) | inactive: 5.3% |
| CC(C)c1ccc(OP(C)(=O)Nc2ccc(SC(F)(F)F)cc2)cc1 (stereo not given) | inactive: 4.5% |
| COc1ccc2c(c1O)-c1c(O)c(OC)cc3c1[C@H](C2)[N+](C)(C)CC3.O=[N+]([O-])c1cc([N+](=O)[O-])c([O-])c([N+](=O)[O-])c1[O-] | inactive: 19.1% |
| O=C(OC1CN2CCC1CC2)c1ccc([N+](=O)[O-])cc1 (stereo not given) | inactive: 5.2% |
| O=C(OCCN1CCN(CCOCc2ccccc2)CC1)C(O)(c1ccccc1)c1ccccc1 | inactive: 3.7% |
| CCOC(=O)c1ccc(NP(C)(=O)Oc2ccc(F)cc2)cc1 (stereo not given) | inactive: -0.7% |
| COc1ccc(OP(C)(=O)Nc2ccc(SC(F)(F)F)cc2)cc1 (stereo not given) | inactive: -6.6% |
| CP(=O)(Nc1ccccc1)Oc1ccc(F)cc1 (stereo not given) | inactive: 5.6% |

| SMILES | inhibition |
| --- | --- |
| O=[N+]([O-])c1cc([N+](=O)[O-])c(OC2CCCCC2O)c([N+](=O)[O-])c1 (stereo not given) | inactive: 0.7% |
| CCCCCOc1ccc(NP(C)(=O)Oc2ccc(Cl)cc2Cl)cc1 (stereo not given) | inactive: 1.9% |
| CCN(CC)CCCOC(=O)C(O)(c1ccccc1)C1CCCCC1 (stereo not given) | inactive: 8.5% |
| O=C(O)c1cccc(Nc2c([N+](=O)[O-])cc([N+](=O)[O-])cc2[N+](=O)[O-])c1 | inactive: 6.5% |
| CC1=NCCc2c1[nH]c1ccccc21.O=[N+]([O-])c1cc([N+](=O)[O-])c(O)c([N+](=O)[O-])c1 | inactive: 5.1% |
| CCOC(=O)c1ccc(NP(C)(=O)Oc2cc(C)cc(C)c2)cc1 (stereo not given) | inactive: -16.4% |
| Cc1cc(C)cc(OP(C)(=O)Nc2ccc(C)cc2C)c1 (stereo not given) | inactive: 5.6% |
| COc1ccccc1OP(C)(=O)Nc1cccc(Br)c1 (stereo not given) | inactive: -7.9% |
| Cc1ccc(C)c(NP(C)(=O)Oc2ccccc2)c1 (stereo not given) | inactive: 1.6% |
| CP(=O)(Nc1cccc(Br)c1)Oc1ccccc1 (stereo not given) | inactive: 11.6% |
| Cc1cc(C)cc(OP(C)(=O)Nc2ccccn2)c1 (stereo not given) | inactive: -0.4% |
| O=[N+]([O-])c1cc([N+](=O)[O-])c(-n2nnc3ccccc32)c([N+](=O)[O-])c1 | inactive: -0.7% |
| Cc1nc2ccc3ccccc3c2s1.O=[N+]([O-])c1cc([N+](=O)[O-])c(O)c([N+](=O)[O-])c1 | inactive: -11.1% |
| CCOC(=O)C(CC)C1=NC(C)(C)Cc2ccccc21.O=[N+]([O-])c1cc([N+](=O)[O-])c(O)c([N+](=O)[O-])c1 (stereo not given) | inactive: 9.5% |
| O=[N+]([O-])c1cc([N+](=O)[O-])c(Nc2nnnn2CCO)c([N+](=O)[O-])c1 | inactive: -3.4% |
| CP(=O)(Nc1ccc(SC(F)(F)F)cc1)Oc1ccccc1 (stereo not given) | inactive: 1% |
| CCCOc1ccc(NP(C)(=O)Oc2ccc(Cl)cc2)cc1 (stereo not given) | inactive: 1.3% |
| CN1CCCCC1COC(=O)C1(O)c2ccccc2CCc2ccccc21 (stereo not given) | inactive: 5.6% |
| COc1ccccc1OP(C)(=O)Nc1c(C)cccc1C (stereo not given) | inactive: 3.9% |
| CP(=O)(Nc1ccccc1Br)Oc1ccccc1 (stereo not given) | inactive: -4.2% |
| COc1ccccc1OP(C)(=O)Nc1ccccc1 (stereo not given) | inactive: 15.4% |
| CP(=S)(Nn1cnnc1)Oc1ccccc1 (stereo not given) | inactive: -1% |

| SMILES | inhibition |
| --- | --- |
| Cc1cc(C)cc(OP(C)(=O)Nc2ccc(SC(F)(F)F)cc2)c1 (stereo not given) | inactive: 2% |
| CCc1ccc(OP(C)(=O)N2CCN(c3ccc([N+](=O)[O-])cc3)CC2)cc1 (stereo not given) | inactive: 10.6% |
| CP(=O)(NC(=O)Nc1ccccc1)Oc1ccccc1 (stereo not given) | inactive: -6.9% |
| CP(=O)(Oc1ccccc1)OC(c1ccccc1)C(F)(F)F (stereo not given) | inactive: 1.2% |
| CP(=O)(Nc1ccc(SC(F)(F)F)cc1)Oc1ccc(Cl)cc1 (stereo not given) | inactive: 1.8% |
| Cc1cccc(C)c1OP(C)(=O)Nc1ccc(SC(F)(F)F)cc1 (stereo not given) | inactive: 11.2% |
| CP(=O)(Nc1ccccn1)Oc1ccc(Cl)cc1 (stereo not given) | inactive: 3.5% |
| CCOC(=O)c1ccc(NP(C)(=O)Oc2ccc(OC)cc2)cc1 (stereo not given) | inactive: 18.3% |
| CCOP(C)(=S)SCC(=O)NC(C)C(=O)O (stereo not given) | inactive: -2.3% |
| CCN(CC)CCCOC(=O)C(O)(c1ccccc1)c1ccccc1 | inactive: -19% |
| O=[N+]([O-])c1ccc2c(c1)C=Nc1ccccc1O2 | inactive: -1% |
| Cc1cccc(C)c1OP(C)(N)=O (stereo not given) | inactive: -5.9% |
| CC(C)(C)c1ccc(OP(C)(=O)Nc2ccc(SC(F)(F)F)cc2)cc1 (stereo not given) | inactive: -3.2% |
| Cc1cc(C)cc(OP(C)(N)=O)c1 (stereo not given) | inactive: 8.1% |
| COc1ccc(OP(C)(=O)Nc2cccc(F)c2)cc1 (stereo not given) | inactive: -2.1% |
| COc1ccccc1OP(C)(=O)Nc1cc(Cl)ccc1C (stereo not given) | inactive: 96.8% |
| Cc1ccc(NP(C)(=O)Oc2ccccc2)c(C)c1 (stereo not given) | inactive: 8.6% |
| COc1ccccc1OP(C)(=O)Nc1ccc(C)cc1 (stereo not given) | inactive: 6.1% |
| CCOC(=O)c1ccc(NP(C)(=O)Oc2ccccc2)cc1 (stereo not given) | inactive: -1.5% |
